Laboratory results published in ChEMBL document CHEMBL3639373, “Antimicrobial compounds” (2015).

The chains behind the UniProt entries cited, without tags or fusion partners.
UniProt P06709, whole entry: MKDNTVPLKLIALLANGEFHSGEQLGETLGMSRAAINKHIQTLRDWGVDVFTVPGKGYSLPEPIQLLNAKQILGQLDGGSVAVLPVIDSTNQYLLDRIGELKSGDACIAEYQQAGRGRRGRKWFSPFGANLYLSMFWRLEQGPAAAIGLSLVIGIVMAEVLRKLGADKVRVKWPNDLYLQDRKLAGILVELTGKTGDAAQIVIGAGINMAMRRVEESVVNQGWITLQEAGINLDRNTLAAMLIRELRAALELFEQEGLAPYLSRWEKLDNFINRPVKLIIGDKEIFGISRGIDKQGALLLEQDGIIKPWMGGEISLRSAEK

Target: Bifunctional ligase/repressor BirA (Escherichia coli (strain K12), UniProt P06709)
Assay: Enzyme Inhibition Assay: Quantitation of BPL catalysed 3H-biotin incorporation into the biotin domain substrate was performed as previously described by Polyak et al, J. Biol. Chem (1999) 274(46) 32847-54. Briefly, the reaction mixture contained: 50 mM Tris HCl pH 8.0, 3 mM ATP, 4.5 uM biotin, 0.5 uM 3H-biotin, 5.5 mM MgCl2, 100 mM KCl, 0.1 mg/mL BSA and 10 uM biotin domain of S. aureus pyruvate carboxylase. The reaction was initiated by the addition of BPL to a final concentration of 4 nM. After 20 minutes at 37 C., 4 uL aliquots of the reaction were spotted onto Whatman paper pre-treated with biotin and trichloroacetic acid. The filters were washed twice with 10% v/v ice-cold trichloroacetic acid and once with ethanol before air-drying. Quantitation of protein-bound radiolabelled biotin was performed by liquid scintillation. One unit of enzyme activity was defined by the amount of BPL required to incorporate 1 nmol of biotin per minute. The IC50 value of each compound was determined.

Question: Which Ki does the source give for `Nc1ncnc2c1ncn2[C@@H]1O[C@H](COP(=O)(O)OCCCCC[C@@H]2SC[C@@H]3NC(=O)N[C@@H]32)[C@@H](O)[C@H]1O` here?
Answer: 420 nM
